Amino acid sequences for entries named in this document (tags omitted). A change or cut given only in a name is not applied to a line headed by its entry. Residues count along the entry.
UniProt Q9Y5N1: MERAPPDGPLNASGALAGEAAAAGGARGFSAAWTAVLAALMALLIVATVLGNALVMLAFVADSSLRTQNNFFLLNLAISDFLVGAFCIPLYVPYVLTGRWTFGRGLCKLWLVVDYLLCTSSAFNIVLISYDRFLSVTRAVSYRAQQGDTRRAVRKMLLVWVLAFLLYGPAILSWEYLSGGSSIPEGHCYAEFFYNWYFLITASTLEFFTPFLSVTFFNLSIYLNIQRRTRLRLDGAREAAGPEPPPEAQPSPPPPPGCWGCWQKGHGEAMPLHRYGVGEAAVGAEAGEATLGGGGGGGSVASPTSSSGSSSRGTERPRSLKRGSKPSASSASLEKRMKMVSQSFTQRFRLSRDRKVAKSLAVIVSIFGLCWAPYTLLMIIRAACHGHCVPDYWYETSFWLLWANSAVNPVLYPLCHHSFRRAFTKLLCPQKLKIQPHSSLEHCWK
UniProt Q9QYN8, 1-397 isoform Q9QYN8-3: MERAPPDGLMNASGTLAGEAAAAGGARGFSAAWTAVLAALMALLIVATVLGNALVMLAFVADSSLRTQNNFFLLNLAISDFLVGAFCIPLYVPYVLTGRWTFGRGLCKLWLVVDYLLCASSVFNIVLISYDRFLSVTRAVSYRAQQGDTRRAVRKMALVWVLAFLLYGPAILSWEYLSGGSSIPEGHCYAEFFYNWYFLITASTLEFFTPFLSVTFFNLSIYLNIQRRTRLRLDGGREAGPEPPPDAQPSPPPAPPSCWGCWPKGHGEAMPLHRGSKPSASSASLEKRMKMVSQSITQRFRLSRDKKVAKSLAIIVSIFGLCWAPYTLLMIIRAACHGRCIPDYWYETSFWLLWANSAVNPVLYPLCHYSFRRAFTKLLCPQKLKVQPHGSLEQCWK

In patent US8940731B2, “Substituted pyridyl amide compounds as modulators of the histamine H3 receptor” (Janssen Pharmaceutica NV, priority 2006, dated 2015):

Tests used:
[1] = target: T1, cloned human H3 receptors (Homo sapiens, UniProt Q9Y5N1); test: H3 Receptor Binding (Human); conditions: cloned human H3 receptors stably expressed in SK-N-MC cells; average of the results obtained
T1 construct: expressed in transfected cells
Description: H3 Receptor Binding (Human)
Binding of compounds to the cloned human H3 receptors, stably expressed in SK-N-MC cells, was performed as described by Barbier, A. J. et al. (Br. J. Pharmacol. 2004, 143(5), 649-661). Data for compounds tested in this assay are presented in Table 1 as an average of the results obtained.

Rat H3 [2] = target: T2, Rat H3 (Rattus norvegicus, UniProt Q9QYN8); test: H3 Receptor Binding (Rat); conditions: rat brain membranes without cerebellum, 0.8 nM N-[3H]-α-methylhistamine, 60 min at 25° C.; average of the results obtained
Description: H3 Receptor Binding (Rat)
A rat brain without cerebellum (Zivic Laboratories Inc., Pittsburgh, Pa.) was homogenized in 50 mM Tris-HCl/5 mM EDTA and centrifuged at 1,000 rpm for 5 min. The supernatant was removed and recentrifuged at 15,000 rpm for 30 min. Pellets were rehomogenized in 50 mM Tris/5 mM EDTA (pH 7.4). Membranes were incubated with 0.8 nM N-[^3H]-α-methylhistamine plus/minus test compounds for 60 min at 25° C. and harvested by rapid filtration over GF/C glass fiber filters (pretreated with 0.3% polyethylenimine) followed by four washes with buffer. Nonspecific binding was defined in the presence of 100 μM histamine. […] Data for compounds tested in this assay are presented in Table 2 as an average of the results obtained.

human H3 receptor = target: T3, human H3 receptor (Homo sapiens, UniProt Q9Y5N1); test: Cyclic AMP Accumulation (human H3 receptor); type: cell-based
T3 construct: expressed in transfected cells; host or cells: SK-N-MC sublines with a reporter construct
Description: (§1) Sublines of SK-N-MC cells were created that expressed a reporter construct and either the human or rat H3 receptor.

Rat H3 [3] = target: T2, Rat H3; test: cell-based
Description: as §1

Ki [1]: 4 nM
Ki (Rat H3 [2]): 66 nM
Kb (human H3 receptor): 0.417 nM
Kb (Rat H3 [3]): 3.31 nM
SMILES: O=C(c1ccc(Oc2ccc(F)cc2)nc1)N1CCCN(C2CCC2)CC1 [Example 19, (4-Cyclobutyl-[1,4]diazepan-1-yl)-[6-(4-fluoro-phenoxy)-pyridin-3-yl]-methanone]
